Experimental data published in publication PMC8752127.

Target: TTBK2^1074−1087 peptide (synthetic) (human) (UniProt Q6IQ55)
Assay: ITC; 25°C, PBS; CEP164 1-109 protein in the syringe, TTBK2 1074-1087 peptide in the cell; one set of binding sites model

dH [kcal/mol]	stoichiometry N	Substance
-17	0.7	CEP164^1−109 (N-terminal domain of human CEP164), untagged (from UniProt Q9UPV0 1-109) (domain or fragment)
-9	1	CEP164^1−109 Q11P, untagged (from UniProt Q9UPV0 1-109) (domain or fragment)
-14	0.7	CEP164^1−109 S82A, untagged (from UniProt Q9UPV0 1-109) (domain or fragment)
-10	1	CEP164^19−109 (CEP164-NTD Δ1–18), untagged (from UniProt Q9UPV0 19-109) (domain or fragment)
